# Laboratory results reported in US9371363B2, “Peptides and their use” (Novabiotics Limited, priority 2007, dated 2016).
# How the values were obtained:
# Ps. aeruginosa = type: cell-based; details: CLSI broth dilution
# Experimental: (§1) Broth Dilution Antibacterial Susceptibility Testing
# (§2) The sensitivity of relevant bacterial strains to the peptides (was determined using Clinical Laboratory Standard Institute (CLSI; formerly NCCLS) Approved Standards. Bacterial susceptibility was tested using “Methods for Dilution Antimicrobial Susceptibility Tests for Bacteria That Grow […]; Approved Standard—Seventh Edition M7-A7”
# S. aureus = type: cell-based; details: CLSI broth dilution
# Experimental: as §1, §2
SMILES,"Minimum Inhibitory Concentration, antimicrobial activity, Ps. aeruginosa (Ps. aeruginosa)","Minimum Inhibitory Concentration, antimicrobial activity, S. aureus (S. aureus)"
"N=C(N)NCCC[C@H](NC(=O)[C@H](CCCNC(=N)N)NC(=O)[C@H](CCCNC(=N)N)NC(=O)[C@H](CCCNC(=N)N)NC(=O)[C@H](CCCNC(=N)N)NC(=O)[C@H](CCCNC(=N)N)NC(=O)[C@H](CCCNC(=N)N)NC(=O)[C@H](CCCNC(=N)N)NC(=O)[C@@H](N)CCCNC(=N)N)C(=O)O [NP349, RRRRRRRRR (SEQ ID NO: 12)]",0.5 mM,
"N=C(N)NCCC[C@H](NC(=O)[C@H](CCCNC(=N)N)NC(=O)[C@H](CCCNC(=N)N)NC(=O)[C@H](CCCNC(=N)N)NC(=O)[C@H](CCCNC(=N)N)NC(=O)[C@H](CCCNC(=N)N)NC(=O)[C@H](CCCNC(=N)N)NC(=O)[C@H](CCCNC(=N)N)NC(=O)[C@@H](N)CCCNC(=N)N)C(=O)O [NP316, RRRRRRRRR (SEQ ID NO: 12)]",,>2 mM
